Measurements: patent US20080260834A1, “VITAMIN D3 ANALOG LOADED POLYMER FORMULATIONS FOR CANCER AND NEURODEGENERATIVE DISORDERS” (priority 2002, published 2008)

Settings: 10 mg pCPP:SA wafers loaded 0.5%, intracranial; days 1, 6, 12; listed as MCW-YB

C=C1/C(=C\C=C2/CCCC3(C)[C@@H]([C@H](C)OCCCC(O)(CC)CC)CC[C@@H]23)CC(O)C[C@H]1CO (stereo partly shown) [MCW-005-YB]
blood calcium compared to placebo wafers: no weight loss or rise in serum ionized calcium; also recorded: no significant rise in blood calcium

Entries after “also recorded” stand apart in the source; their conditions may differ.
